Experimental data taken from patent US5369095A, “Compositions and method comprising substituted glycosides as mucus membrane permeation enhancers” (priority 1993, dated 1994).

Details: rabbit, in vivo

For HPMC, the “increase in the amount of para-amino-clonidine found in the aqueous humor” value was ~4.0 fold.
